Experimental data as given in publication PMC11637378, “Optogenetic screening of MCT1 activity implicates a cluster of non-steroidal anti-inflammatory drugs (NSAIDs) as inhibitors of lactate transport” (PLOS ONE, 2024).

Chains of the proteins cited; added tags and fusions are not shown. Lines headed by an entry give the natural chain unless they say otherwise; changes in a name come on top.
UniProt P36035: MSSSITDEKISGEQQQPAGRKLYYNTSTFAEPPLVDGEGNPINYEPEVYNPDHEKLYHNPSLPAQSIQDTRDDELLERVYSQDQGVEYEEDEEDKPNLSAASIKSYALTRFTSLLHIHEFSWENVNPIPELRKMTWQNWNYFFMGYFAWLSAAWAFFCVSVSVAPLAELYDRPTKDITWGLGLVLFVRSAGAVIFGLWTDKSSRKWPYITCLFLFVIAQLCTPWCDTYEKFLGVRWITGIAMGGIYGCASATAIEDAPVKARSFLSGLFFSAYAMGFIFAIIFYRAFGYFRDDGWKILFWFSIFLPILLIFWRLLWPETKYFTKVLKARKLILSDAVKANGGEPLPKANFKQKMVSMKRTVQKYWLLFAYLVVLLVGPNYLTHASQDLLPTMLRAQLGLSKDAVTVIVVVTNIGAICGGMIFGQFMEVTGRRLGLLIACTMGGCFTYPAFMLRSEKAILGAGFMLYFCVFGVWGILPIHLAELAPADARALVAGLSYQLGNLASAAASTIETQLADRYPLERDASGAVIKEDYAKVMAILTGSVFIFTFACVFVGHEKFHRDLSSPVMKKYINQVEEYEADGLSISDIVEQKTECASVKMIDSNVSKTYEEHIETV
UniProt P53987, whole entry, looked up, stated change not applied: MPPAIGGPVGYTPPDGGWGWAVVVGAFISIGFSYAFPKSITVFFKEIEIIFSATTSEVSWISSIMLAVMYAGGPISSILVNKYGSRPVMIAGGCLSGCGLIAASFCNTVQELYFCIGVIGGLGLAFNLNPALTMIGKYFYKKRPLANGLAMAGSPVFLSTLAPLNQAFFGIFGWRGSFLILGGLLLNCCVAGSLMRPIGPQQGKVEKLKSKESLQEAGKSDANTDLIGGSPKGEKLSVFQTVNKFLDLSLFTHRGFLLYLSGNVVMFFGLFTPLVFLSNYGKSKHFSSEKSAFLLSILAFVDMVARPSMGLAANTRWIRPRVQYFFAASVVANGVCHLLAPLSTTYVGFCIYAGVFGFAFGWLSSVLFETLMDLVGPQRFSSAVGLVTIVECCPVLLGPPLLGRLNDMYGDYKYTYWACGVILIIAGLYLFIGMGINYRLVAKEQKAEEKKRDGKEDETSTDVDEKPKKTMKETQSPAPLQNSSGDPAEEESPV

Target: R. norvegicus MCT1 (F360C) (UniProt P36035+P53987, F360C)
Experiment: optoMEV-MCT1 growth IC50 determination, 384-well assay
[1] = optoMEV-MCT1 growth after 18 hours, non-linear regression (Fig 4C)
[2] = 18 hours, dose-response of optoMEV-MCT1 normalized to parent strain SAWy518 (Fig 5B)

SMILES | IC50 [1] [µM] | IC50 [2] [µM]
CC(Cc1ccc(O)c(O)c1)C(C)Cc1ccc(O)c(O)c1 (stereo not drawn) | 1.8 | 
COc1ccc2cc(CCC(C)=O)ccc2c1 [Nabumetone] |  | 110
CN1C(C(=O)Nc2ccccn2)=C(O)c2ccccc2S1(=O)=O |  | 4.4
CC1=C(CC(=O)O)c2cc(F)ccc2/C1=C\c1ccc([S+](C)[O-])cc1 (stereo not drawn) |  | 46
CCOC(=O)Oc1c(OC)cc(C(=O)O[C@@H]2C[C@@H]3CN4CCc5c([nH]c6cc(OC)ccc56)[C@H]4C[C@@H]3[C@H](C(=O)OC)[C@H]2OC)cc1OC [Syrosingopine] | 2.3 | 
Cc1cnc(NC(=O)C2=C(O)c3ccccc3S(=O)(=O)N2C)s1 [Meloxicam] |  | 17
